{"source": "ChEMBL document CHEMBL1139869", "about": "“Design and synthesis of novel quinolinone-3-aminoamides and their alpha-lipoic acid adducts as antioxidant and anti-inflammatory agents” (2007)", "key": {"[1]": {"test": "Antioxidant activity assessed as DPPH reducing activity at 0.1 mM after 60 mins", "type": "functional", "parameters": "scale not given: the % may be the effect or the level left", "how_it_was_run": "(§1)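 DPPH in absolute ethanol was mixed with an equal volume of compound in ethanol (0.1 or 0.5 mM); ethanol served as control. Absorbance at 517 nm was read after 20 and 60 min at room temperature. At least triplicate.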"}, "[2]": {"test": "Antioxidant activity assessed as DPPH reducing activity at 0.1 mM after 20 mins", "type": "functional", "parameters": "scale not given: the % may be the effect or the level left", "how_it_was_run": "as §1"}}}
{"smiles": "CC(Cc1ccc(O)c(O)c1)C(C)Cc1ccc(O)c(O)c1", "note": "(configuration not stated)", "values": [{"measurement": "Activity", "setting": "[1]", "value": 82.6, "unit": "%"}, {"measurement": "Activity", "setting": "[2]", "value": 81, "unit": "%"}]}
